The first assay deals with MES (electrical stimulus) seizure. Nature of the assay: Anti-excitation activity using MES test. It counts as in vivo, male ICR mice. Conditions: MES test (po), mice, injection amount 50 mg/kg.
`C[C@H](OC(N)=O)[C@@H](O)c1ccccc1F` [Compound 63, 1-(2-fluorophenyl)-(S)-1-hydroxypropyl-(S)-2-carbamate]: the “Protection % (percentage of activity compared to the vehicle only)” value is 50 ^a(100%).

For the compound `C[C@H](OC(N)=O)[C@@H](O)c1ccccc1I` [Compound 65, 1-(2-iodophenyl)-(S)-1-hydroxypropyl-(S)-2-carbamate], the “Protection % (percentage of activity compared to the vehicle only)” value is 50 ^a(100%).

The assay is the same for the next values; noted with them: MES test (po), mice, injection amount 100 mg/kg.
`CCC(OC(N)=O)C(O)c1ccccc1Cl` (racemic): the “Protection % (percentage of activity compared to the vehicle only)” value was 100 ^a(100%).

Regarding `CCCC[C@H](OC(N)=O)[C@@H](O)c1ccc(Cl)cc1Cl`, the “Protection % (percentage of activity compared to the vehicle only)” value is recorded as 100 ^a(25%).

Regarding `CCCC[C@H](OC(N)=O)[C@@H](O)c1c(Cl)cccc1Cl`, the “Protection % (percentage of activity compared to the vehicle only)” value is 100 ^a(75%).

For the compound `CC[C@H](OC(N)=O)[C@@H](O)c1ccccc1I` [Compound 67, 1-(2-iodophenyl)-(S)-1-hydroxybutyl-(S)-2-carbamate], the “Protection % (percentage of activity compared to the vehicle only)” value was 100 ^a(100%).

On to `CCCC[C@H](OC(N)=O)[C@@H](O)c1ccccc1Cl`, for which the “Protection % (percentage of activity compared to the vehicle only)” value is recorded as 100 ^a(75%).

The same assay, now with this note: MES test (po), mice, injection amount 200 mg/kg.
As to `CCCCC(OC(N)=O)C(O)c1ccccc1Cl` (racemic), the “Protection % (percentage of activity compared to the vehicle only)” value is listed as 200 ^a(100%).

For the compound `CCCC[C@@H](OC(N)=O)[C@H](O)c1ccccc1Cl`, the “Protection % (percentage of activity compared to the vehicle only)” value is 200 ^a(75%).

The values are drawn from patent publication US9872847B2 (priority 2013, dated 2018).
